How the values were obtained:
Assay type in all cases: cell-based
S. aureus (NCTC 10788) = test system: S. aureus (NCTC 10788)
Text: (§1) The MIC and MBC assays were used to assess the inhibitory activities of all 5 analogues of R2AW on the growth of planktonic microorganisms. The MIC is the lowest concentration that prevents the viable growth of bacteria. The MBC is the lowest concentration that results in bacterial death. Six microorganisms were used to detect the antimicrobial activity of peptides, including Gram-positive bacteria S. aureus (NCTC 10788), MRSA (NCTC 12493), Enterococcus faecalis (E. faecalis) (NCTC 12697), Gram-negative bacteria E. coli […], Klebsiella pneumoniae (K. pneumoniae) (ATCC 43816), and Pseudomonas aeruginosa (P. aeruginosa) (ATCC 9027). According to the assay described previously, the microorganisms were inoculated at 37 °C overnight and diluted to 5 × 10^5 CFU/mL after reaching the logarithmic growth period. The peptide stock solution at the concentration of 512 × 10^2 μM was prepared and diluted to 100 μM by a 2-fold dilution. One μL of each concentration of peptide solution was incubated with 99 μL of bacterial subculture in the 96-well plate for 18 h at 37 °C. The absorbance was determined at a wavelength of 550 nm using a Synergy HT plate reader (Bio Tek, Washington, DC, USA). […] As for those wells that were clearly visible, 20 μL of the solution was dropped onto the Mueller Hinton agar (MHA) dish and then incubated at 37 °C overnight. The lowest concentration with no colony growth was determined as the MBC.

E. coli (ATCC 8739) = test system: E. coli (ATCC 8739)
Text: as §1

MRSA (NCTC 12493) = test system: MRSA (NCTC 12493)
Text: as §1

[1] = test system: P. aeruginosa (ATCC 9027)
Text: as §1

Structure (SMILES): CC[C@H](C)[C@H](NC(=O)CN)C(=O)NCC(=O)N[C@@H](C)C(=O)N[C@H](C(=O)N[C@@H](CC(C)C)C(=O)N[C@@H](CCCCN)C(=O)N[C@H](C(=O)N[C@@H](CC(C)C)C(=O)N[C@H](C(=O)N[C@H](C(=O)NCC(=O)N[C@@H](CC(C)C)C(=O)N1CCC[C@H]1C(=O)N[C@@H](C)C(=O)N[C@@H](CC(C)C)C(=O)N[C@H](C(=O)N[C@@H](CO)C(=O)N[C@@H](Cc1c[nH]c2ccccc12)C(=O)N[C@H](C(=O)N[C@@H](CCCCN)C(=O)N[C@@H](CCCNC(=N)N)C(=O)N[C@@H](CCCCN)C(=O)N[C@@H](CCCNC(=N)N)C(=O)N[C@@H](CCC(N)=O)C(=O)N[C@@H](CCC(N)=O)C(N)=O)[C@@H](C)CC)[C@@H](C)CC)[C@@H](C)O)[C@@H](C)O)C(C)C)C(C)C [Melittin, reference compound]
- MIC (S. aureus (NCTC 10788)): 2 µM
- MIC (E. coli (ATCC 8739)): 4 µM
- MIC (MRSA (NCTC 12493)): 2 µM
- MIC [1]: 16 µM
